One assay concerns the target Human plasma kallikrein (Homo sapiens (Human), UniProt P03952). Nature of the assay: Determination of the IC50 for plasma kallikrein. The conditions noted are these: 25° C., fluorogenic substrate H-DPro-Phe-Arg-AFC; read-out: IC50 (human PKaI). Format: biochemical.
In a further assay the target is Human KLK1 (Homo sapiens (Human), UniProt P06870). Nature of the assay: Determination of the IC50 for KLK1. Format: biochemical.

Amino acid sequences for entries named in this document (tags omitted). Residues count along the entry.
UniProt P03952, 20-390 partner: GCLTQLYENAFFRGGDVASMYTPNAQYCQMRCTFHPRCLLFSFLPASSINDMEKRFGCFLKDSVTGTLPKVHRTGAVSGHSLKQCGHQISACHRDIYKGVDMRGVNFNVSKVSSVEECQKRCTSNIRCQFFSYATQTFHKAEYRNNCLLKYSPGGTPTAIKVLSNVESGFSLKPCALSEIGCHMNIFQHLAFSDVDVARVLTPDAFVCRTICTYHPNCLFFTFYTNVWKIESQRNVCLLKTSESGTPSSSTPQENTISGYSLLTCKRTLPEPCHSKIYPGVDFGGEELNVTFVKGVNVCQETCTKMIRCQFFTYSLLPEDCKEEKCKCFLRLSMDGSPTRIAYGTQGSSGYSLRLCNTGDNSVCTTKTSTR
UniProt P03952, 391-638: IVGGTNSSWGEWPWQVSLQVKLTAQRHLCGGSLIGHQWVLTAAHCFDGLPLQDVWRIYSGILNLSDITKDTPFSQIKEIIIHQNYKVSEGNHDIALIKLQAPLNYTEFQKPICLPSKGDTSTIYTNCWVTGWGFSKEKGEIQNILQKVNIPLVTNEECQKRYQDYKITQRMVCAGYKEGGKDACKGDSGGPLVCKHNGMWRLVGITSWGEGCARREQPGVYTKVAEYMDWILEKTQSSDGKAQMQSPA
UniProt P06870, 25-262: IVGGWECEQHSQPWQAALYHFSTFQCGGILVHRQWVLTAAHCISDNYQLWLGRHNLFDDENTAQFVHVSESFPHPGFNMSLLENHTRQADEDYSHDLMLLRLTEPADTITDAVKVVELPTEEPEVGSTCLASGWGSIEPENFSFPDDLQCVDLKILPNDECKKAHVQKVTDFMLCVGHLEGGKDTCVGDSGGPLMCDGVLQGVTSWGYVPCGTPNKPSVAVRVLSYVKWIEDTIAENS

A word on the IC50: it is the concentration that inhibits the measured activity by half. As to `COCc1nn(Cc2ccc(Cn3ccccc3=O)cc2)cc1C(=O)NCc1c(Cl)ccc(OC)c1F` [Example 99, N-[(6-chloro-2-fluoro-3-methoxyphenyl)methyl]-3-(methoxymethyl)-1-({4-[(2-oxopyridin-1-yl)methyl]phenyl}methyl)pyrazole-4-carboxamide], the IC50 on Human plasma kallikrein was 6.4 nM; against Human KLK1 it was over 10000 nM.

Source of the values: patent US10364238B2, “N-((het) arylmethyl)-heteroaryl-carboxamides compounds as plasma kallikrein inhibitors” (KALVISTA PHARMACEUTICALS LIMITED, priority 2014, dated 2019).
